Values of other authors as cited in patent US20260263624A1, “COMBINATION OF ANTIBODY-DRUG CONJUGATE AND CANCER THERAPY, AND USE THEREOF” (GENEQUANTUM HEALTHCARE (SUZHOU) CO., LTD., priority 2023, published 2026).

Test system: patients with mBC or LABC
Conditions: single-agent T-DM1; cited from earlier work

Substance: T-DM1
- patients with thrombocytopenia: 30-55%
